This note sets out measurements from ChEMBL document CHEMBL5500327, “Targeting insulin-like growth factor 2 mRNA-binding proteins (IGF2BPs) for the treatment of cancer” (Eur J Med Chem, 2024).

For this assay, the species on record is Homo sapiens. In words: Inhibition of full length IMP-1 (unknown origin) binding to fluorescein labeled 93 nucleotide c-Myc mRNA expressed in Escherichia coli BL21 (DE3) pLysS at 5 uM by FAMA method relative to control.

As to `CC(NC(=O)CSc1nnc2c3cc(Br)ccc3n(C)c2n1)c1ccccc1` (stereo unspecified), the inhibition was 72%.

In general, inhibition refers to how much of the control response was suppressed. A low value points to a response near the control.
